Reference: ChEMBL document CHEMBL1145823, “Docking and database screening reveal new classes of Plasmodium falciparum dihydrofolate reductase inhibitors” (J Med Chem, 2003)

Protein sequences, listed by entry. Tags and fused reporters are not part of them. Lines headed by an entry give the natural chain unless they say otherwise; changes in a name come on top.
UniProt P13922: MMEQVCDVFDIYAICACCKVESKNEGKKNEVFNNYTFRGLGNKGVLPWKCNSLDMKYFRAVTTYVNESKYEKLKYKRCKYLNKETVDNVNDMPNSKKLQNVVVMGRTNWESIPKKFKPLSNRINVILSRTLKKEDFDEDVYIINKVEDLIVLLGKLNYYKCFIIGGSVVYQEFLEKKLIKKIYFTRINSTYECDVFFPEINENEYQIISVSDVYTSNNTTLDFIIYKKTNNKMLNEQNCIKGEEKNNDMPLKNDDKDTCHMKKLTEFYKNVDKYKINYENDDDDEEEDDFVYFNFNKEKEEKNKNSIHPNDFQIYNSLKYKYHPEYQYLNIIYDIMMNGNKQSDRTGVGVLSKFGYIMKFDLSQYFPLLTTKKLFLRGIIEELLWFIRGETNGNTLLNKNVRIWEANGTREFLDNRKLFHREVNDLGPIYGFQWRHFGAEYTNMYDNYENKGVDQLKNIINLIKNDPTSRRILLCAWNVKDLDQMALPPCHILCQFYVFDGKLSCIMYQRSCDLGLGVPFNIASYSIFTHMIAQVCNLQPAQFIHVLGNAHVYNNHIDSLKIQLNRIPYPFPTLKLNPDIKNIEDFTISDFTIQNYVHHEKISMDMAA

Target: Bifunctional dihydrofolate reductase-thymidylate synthase (Plasmodium falciparum K1, UniProt P13922)
Experiment: Inhibition constant against wild-type PfDHFR (Plasmodium falciparum dihydrofolate reductase)
How it was run: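 Recombinant wild-type or mutant PfDHFR, expressed in bacteria (induction at 20 °C for 20 h) and purified on methotrexate-Sepharose. Spectrophotometric assay in 50 mM TES pH 7.0, 75 mM β-mercaptoethanol, 1 mg/mL BSA, with 100 μM each H2-folate and NADPH. Started with enzyme (0.6–1 nM). Ki from IC50 = Ki(1+[S]/Km), assuming competitive binding.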

SMILES | Ki [µM]
N=C(S)N/N=C/c1ccc(Oc2ncc(C(F)(F)F)cc2Cl)cc1 | 5.2
COC(=O)c1sccc1-c1ccc(/C(C)=N/NC(N)=O)o1 | 9.7
